Article PMC7956476, “Quinoline Functionalized Schiff Base Silver (I) Complexes: Interactions with Biomolecules and In Vitro Cytotoxicity, Antioxidant and Antimicrobial Activities” (Molecules, 2021)

System: calf thymus DNA (CT-DNA)
Assay: CT-DNA electronic absorption titration (Wolfe–Shimer)
Format: binding
Details: absorption titration with CT-DNA
Experimental: The interaction of the L1–L5 and complexes Q1–Q15 with calf thymus-DNA was carried out in a Phosphate buffer saline solution pH 7.2 stored at 4 °C. The DNA stock solution was prepared by dissolving CT-DNA sodium salt in Phosphate buffer saline solution with continuous stirring overnight. It was filtered and stored at 4 °C and used within four days. […] A fixed amount of the L1–L5 and complexes Q1–Q15 (50 µM) were prepared by dissolving an appropriate amount in DMSO. […] Therefore, in all the experimental of the interaction of L1–L5 and complexes Q1–Q15 with biomolecules, the final concentration of DMSO in the incubation mixture was ~2% (v/v).
The binding modes of L1–L5 and complexes Q1–Q15 to CT-DNA were characterized through electronic absorption titration by varying concentrations of CT-DNA (0–30 µM) in phosphate buffer saline solution against fixed concentrations (20 µM) of L1–L5 and complexes Q1–Q15. […] The absorbance of CT-DNA is cancelled by adding equivalent amounts of CT-DNA to both the tested compounds and the reference solutions.

O=[N+]([O-])[O-].[Ag+] [AgNO3, silver nitrate, reference compound]
hypochromic shift in the absorption bands on addition of CT-DNA: 23.64–50.86%
